Data as given in patent publication US7919495B2, “Pyridyl non-aromatic nitrogen-containing heterocyclic-1-carboxylate compound” (Astellas Pharma, Inc., priority 2005, dated 2011).

The chains behind the UniProt entries cited, without tags or fusion partners.
UniProt O00519, whole entry: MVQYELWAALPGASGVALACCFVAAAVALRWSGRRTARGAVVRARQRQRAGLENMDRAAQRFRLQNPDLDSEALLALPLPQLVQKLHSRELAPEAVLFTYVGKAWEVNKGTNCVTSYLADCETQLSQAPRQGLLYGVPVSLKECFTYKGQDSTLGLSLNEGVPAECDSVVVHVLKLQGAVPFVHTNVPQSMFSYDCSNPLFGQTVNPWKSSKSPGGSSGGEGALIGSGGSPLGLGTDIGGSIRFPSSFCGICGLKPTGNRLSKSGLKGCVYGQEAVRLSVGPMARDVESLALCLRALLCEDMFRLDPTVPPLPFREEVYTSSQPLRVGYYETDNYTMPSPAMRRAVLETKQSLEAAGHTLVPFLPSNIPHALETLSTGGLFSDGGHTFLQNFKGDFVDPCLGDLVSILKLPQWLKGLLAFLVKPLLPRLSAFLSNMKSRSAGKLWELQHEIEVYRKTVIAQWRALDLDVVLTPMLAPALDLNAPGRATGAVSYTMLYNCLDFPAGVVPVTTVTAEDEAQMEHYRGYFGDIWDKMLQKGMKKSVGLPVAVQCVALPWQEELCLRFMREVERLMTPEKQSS

Target: FAAH in human bladder epithelial cancer-derived cell line 5678 cells (Homo sapiens, UniProt O00519)
Assay: Screening for FAAH activity-inhibiting substance with human bladder epithelial cancer-derived cell (IC50, Table 64)
Assay type: cell-based
Details: read-out: cell FAAH IC50

| SMILES | IC50 |
| --- | --- |
| NC(=O)/C=C/c1cncc(OC(=O)N2CCC(CCc3ccccc3)CC2)c1 | 0.075 nM |
| NC(=O)c1cncc(OC(=O)N2CCC(CCc3ccc(C(=O)N4CC4)cc3)CC2)c1 | 0.14 nM |
